{"sequences": {"note": "Protein sequences, listed by entry. Tags and fused reporters are not part of them.", "UniProt Q9Y5K5, whole entry": "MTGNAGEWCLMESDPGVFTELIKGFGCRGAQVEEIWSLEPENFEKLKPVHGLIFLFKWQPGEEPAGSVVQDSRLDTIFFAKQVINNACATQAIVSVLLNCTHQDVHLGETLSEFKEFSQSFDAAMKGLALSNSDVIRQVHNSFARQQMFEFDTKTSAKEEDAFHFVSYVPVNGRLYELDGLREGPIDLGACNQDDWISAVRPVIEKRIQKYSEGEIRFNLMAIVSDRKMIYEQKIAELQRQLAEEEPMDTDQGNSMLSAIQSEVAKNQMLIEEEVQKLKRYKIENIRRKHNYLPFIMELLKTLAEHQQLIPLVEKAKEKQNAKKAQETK"}, "source": "PubChem BioAssay AID588478", "about": "(ICCB-Longwood Screening Facility, Harvard Medical School, 2011)", "note": "Only a part is listed here, and it is no random draw. Calls of active or inactive are those of the source.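 The calls were made as follows: active = mean inhibition over replicate wells above about 20% (limit read from the data); inactive = the rest.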", "data": [{"molecular_target": "Ubiquitin carboxyl-terminal hydrolase isozyme L5 (Homo sapiens) (UniProt Q9Y5K5)", "test": "proteasome-bound UCH37 DUB activity blockers – biochemical, Ub-AMC cleavage, fluorescence, primary screen (AID 588478);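 also: 0% = compound-free wells with enzyme and 100% = wells lacking proteasome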", "settings": "purified proteasome/UCH37, Ub-AMC cleavage fluorescence; hits give high values; concentration not given here", "in_short": "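Signal – fluorescence, ex 355 nm, em 460 nm · System – Proteasome-bound UCH37 · Input – 0.15 nM proteasome as dispensed · Timing – 30 min preincubation with enzyme, 25 min cleavage at room temperature · Read-out basis – percent inhibition of cleavage signal versus uninhibited and no-proteasome wells · Medium – Tris-HCl pH 7.4 with ATP-MgCl2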", "values": [{"smiles": "Cc1ccc(NC(=NP(=O)(N2CCOCC2)N2CCOCC2)N2CCOCC2)cc1", "inhibition": "inactive: 1.05%"}, {"smiles": "CN(C(=O)Cc1ccccc1)[C@@H]1CC[C@]2(CCCO2)C[C@H]1N1CCCC1", "inhibition": "inactive: 0.418%"}, {"smiles": "CCOP1(=S)c2c(C)nn(CCC#N)c2N=C(c2ccc(F)cc2)N1C", "note": "(stereo unspecified)", "inhibition": "inactive: 2.37%"}, {"smiles": "CN(C)C(=O)c1cc([N+](=O)[O-])cc2c1-c1c(cc([N+](=O)[O-])cc1[N+](=O)[O-])C2=O", "inhibition": "inactive: 13.8%"}, {"smiles": "O=[N+]([O-])c1ccc2c(c1)nnn2O", "inhibition": "inactive: 4.98%"}, {"smiles": "CN(C(=O)Cc1ccc(Cl)c(Cl)c1)[C@H]1CC[C@@]2(CCCO2)C[C@@H]1N1CCCC1", "inhibition": "inactive: 2.2%"}, {"smiles": "CC1=NCCc2c1[nH]c1ccccc21.O=[N+]([O-])c1cc([N+](=O)[O-])c(O)c([N+](=O)[O-])c1", "inhibition": "inactive: -17%"}, {"smiles": "NC(=O)Nc1ccc([As](=O)(O)O)cc1", "inhibition": "inactive: 1.57%"}, {"smiles": "O=C(O)COc1ccc([As](=O)(O)O)cc1[N+](=O)[O-]", "inhibition": "inactive: 4.16%"}, {"smiles": "Nc1ccccc1[As](=O)(O)c1ccccc1", "inhibition": "inactive: 3.2%"}, {"smiles": "O=C(O)c1cccc(Nc2c([N+](=O)[O-])cc([N+](=O)[O-])cc2[N+](=O)[O-])c1", "inhibition": "inactive: 17.3%"}, {"smiles": "CCOP1(=S)c2c(C)nn(CCC#N)c2N=C(c2ccccc2F)N1C", "note": "(stereo unspecified)", "inhibition": "inactive: 4.88%"}, {"smiles": "O=P(Nc1nccs1)(c1ccccc1)c1nc2ccccc2s1", "note": "(stereo unspecified)", "inhibition": "inactive: 0.7%"}, {"smiles": "O=P(Nc1nccs1)(Oc1ccccc1)Oc1ccccc1", "inhibition": "inactive: 3.59%"}, {"smiles": "CP(=O)(Nc1ccc(SC(F)(F)F)cc1)Oc1ccccc1", "note": "(stereo unspecified)", "inhibition": "inactive: 5.45%"}, {"smiles": "Nc1cccc([As](=O)(O)c2ccccc2)c1", "inhibition": "inactive: -1.29%"}, {"smiles": "CCCOc1ccc(NP(C)(=O)Oc2ccc(Cl)cc2)cc1", "note": "(stereo unspecified)", "inhibition": "inactive: 2.9%"}, {"smiles": "NS(=O)(=O)c1cccc(NC(=O)COC(=O)C(O)(c2ccccc2)c2ccccc2)c1", "inhibition": "inactive: 1.27%"}, {"smiles": "O=P1(Nc2ccc(Br)cn2)COc2ccccc2OC1", "inhibition": "inactive: -2.41%"}, {"smiles": "Cc1ccc(OCC(=O)OC2CN3CCC2CC3)cc1", "note": "(stereo unspecified)", "inhibition": "inactive: 4.88%"}, {"smiles": "O=[As](O)(c1cccs1)c1cccs1", "inhibition": "inactive: -2.78%"}, {"smiles": "O=P1(Nc2ncccn2)COc2ccccc2OC1", "inhibition": "inactive: 0.541%"}, {"smiles": "CN1CCCCC1COC(=O)C1(O)c2ccccc2CCc2ccccc21", "note": "(stereo unspecified)", "inhibition": "inactive: 3.59%"}, {"smiles": "COc1ccccc1OP(C)(=O)Nc1c(C)cccc1C", "note": "(stereo unspecified)", "inhibition": "inactive: 4.54%"}, {"smiles": "O=[N+]([O-])c1cc([N+](=O)[O-])c(Nc2nnnn2CCO)c([N+](=O)[O-])c1", "inhibition": "inactive: 18.3%"}, {"smiles": "CC1=C2N=C(C=C3N=C(C(C)=C4[N-][C@@](C)([C@@H]5N=C1[C@](C)(CCC(=O)NC[C@@H](C)OP(=O)([O-])O[C@H]1[C@@H](O)[C@@H](n6cnc7cc(C)c(C)cc76)O[C@@H]1CO)[C@H]5CC(N)=O)[C@@](C)(CC(N)=O)[C@@H]4CCC(N)=O)[C@@](C)(CC(N)=O)[C@@H]3CCC(N)=O)C(C)(C)[C@@H]2CCC(N)=O.[C-]#N.[Co+3]", "inhibition": "active: 48.4%"}, {"smiles": "CN(C)C1(CNC(=O)c2ccc(S(C)(=O)=O)cc2)CCCCC1", "inhibition": "inactive: -0.344%"}, {"smiles": "CCOC(=O)C(CC)C1=NC(C)(C)Cc2ccccc21.O=[N+]([O-])c1cc([N+](=O)[O-])c(O)c([N+](=O)[O-])c1", "note": "(stereo unspecified)", "inhibition": "inactive: 15.7%"}, {"smiles": "O=C(/C=C/c1ccccc1)OC1CN2CCC1CC2", "note": "(stereo unspecified)", "inhibition": "inactive: 3.43%"}, {"smiles": "CCCC1OP(=O)(Nc2ccccc2)OCC1CC", "note": "(stereo unspecified)", "inhibition": "inactive: 2.63%"}, {"smiles": "Cc1nn(-c2ccccc2)c2c1P(=O)(N1CCOCC1)N(C)C(c1ccccc1)=N2", "note": "(stereo unspecified)", "inhibition": "inactive: 0.222%"}, {"smiles": "Cc1ccc(C(=O)OC2CN3CCC2CC3)cc1", "note": "(stereo unspecified)", "inhibition": "inactive: 5.66%"}, {"smiles": "CC1CCC(C(C)C)C(OP(=O)(Nc2ccccn2)c2ccccc2)C1", "note": "(stereo unspecified)", "inhibition": "inactive: 0.337%"}, {"smiles": "COc1cc(C2NCCC3(OCCO3)C2(C)C)cc(OC)c1OC.O=[N+]([O-])c1cc([N+](=O)[O-])c(O)c([N+](=O)[O-])c1", "note": "(stereo unspecified)", "inhibition": "inactive: 3.8%"}, {"smiles": "CN(C(=O)Cc1ccc(Cl)c(Cl)c1)[C@@H]1CCCC[C@H]1N1CCCC1", "inhibition": "inactive: 4.22%"}, {"smiles": "O=[As](O)(c1ccccc1Br)c1ccccc1Br", "inhibition": "inactive: 0.613%"}, {"smiles": "CC1(CBr)Cn2c(nc3ccccc3c2=O)S1", "note": "(stereo unspecified)", "inhibition": "inactive: 3.21%"}, {"smiles": "Cc1nc2ccc3ccccc3c2s1.O=[N+]([O-])c1cc([N+](=O)[O-])c(O)c([N+](=O)[O-])c1", "inhibition": "inactive: 19%"}, {"smiles": "O=[N+]([O-])c1cc([N+](=O)[O-])c(-c2cnn(-c3ccccc3)c2)c([N+](=O)[O-])c1", "inhibition": "inactive: 0.0881%"}, {"smiles": "COc1ccccc1CNC(=O)COC(=O)C(O)(c1ccccc1)c1ccccc1", "inhibition": "inactive: 1.47%"}, {"smiles": "Clc1n[nH]nc1-c1nn[nH][15n]1", "inhibition": "inactive: 2.14%"}, {"smiles": "CC(C)(C)C(=O)NC(Sc1ncccn1)C(Cl)(Cl)Cl", "note": "(stereo unspecified)", "inhibition": "inactive: 0.49%"}, {"smiles": "O=P1(Nc2ccccn2)COc2ccccc2OC1", "inhibition": "inactive: 0.593%"}, {"smiles": "O=[N+]([O-])c1cc([N+](=O)[O-])c(-n2nnc3ccccc32)c([N+](=O)[O-])c1", "inhibition": "inactive: 11.5%"}, {"smiles": "CN(CCCl)Cc1cc(Cl)c(NC2=NCCN2)c(Cl)c1", "inhibition": "inactive: 6.24%"}, {"smiles": "CCOP(=O)(Nc1ccc(C)cn1)OCC", "inhibition": "inactive: -5.25%"}]}]}
